Results as given in patent US20220193076A1, “METHODS OF TREATING BREAST CANCER WITH TUCATINIB” (Seagen Inc., priority 2019, published 2022).

Tested on: MATE1/2K
Experiment: Phase 1 drug-drug interaction study: effect of tucatinib on metformin pharmacokinetics (Example 1)
Settings: metformin co-administered with tucatinib

Change in metformin CLrenal: reductions
SMILES: CN(C)C(=N)N=C(N)N [metformin]
